Columns and labels:
TNF-α production = assay: Effect on TNF-α production in mice (in vivo), LPS-induced; details: serum TNF-α 90 min after LPS 500 μg/kg i.p.; test compound orally 30 min before LPS; ratio relative to test compound non-administration group
Experimental: (§1) Since the TNF-α concentration in serum reaches a peak at 90 min after LPS administration, the TNF-α concentration in the serum at this point was measured using FACTOR TEST mTNF-α (manufactured by Genzyme) and the IL-10 concentration at the same point of time was also measured using Murine IL-10 ELISA Kit (manufactured by Endogen). […] The effect of the test compound on the TNF-α production and IL-10 production was calculated by the following formula as the ratio relative to the test compound non-administration group.

IL-10 production = assay: Effect on IL-10 production in mice (in vivo), LPS-induced; details: serum IL-10 90 min after LPS 500 μg/kg i.p.; test compound orally 30 min before LPS; ratio relative to test compound non-administration group
Experimental: as §1

CC(=O)NCc1ccc(CN2CCN(c3ccc(F)cc3F)CC2)cc1 [Example 20, N-(4-((4-(2,4-Difluorophenyl)piperazin-1-yl)methyl)phenylmethyl)acetamide]
TNF-α production (%) (TNF-α production): 17% | IL-10 production (%) (IL-10 production): 770%

From patent US6455528B1, “Piperazine compounds and medicinal use thereof” (Mitsubishi Pharma Corporation, priority 1997, dated 2002)
